Chains of the proteins cited; added tags and fusions are not shown. Lines headed by an entry give the natural chain unless they say otherwise; changes in a name come on top.
UniProt P31391: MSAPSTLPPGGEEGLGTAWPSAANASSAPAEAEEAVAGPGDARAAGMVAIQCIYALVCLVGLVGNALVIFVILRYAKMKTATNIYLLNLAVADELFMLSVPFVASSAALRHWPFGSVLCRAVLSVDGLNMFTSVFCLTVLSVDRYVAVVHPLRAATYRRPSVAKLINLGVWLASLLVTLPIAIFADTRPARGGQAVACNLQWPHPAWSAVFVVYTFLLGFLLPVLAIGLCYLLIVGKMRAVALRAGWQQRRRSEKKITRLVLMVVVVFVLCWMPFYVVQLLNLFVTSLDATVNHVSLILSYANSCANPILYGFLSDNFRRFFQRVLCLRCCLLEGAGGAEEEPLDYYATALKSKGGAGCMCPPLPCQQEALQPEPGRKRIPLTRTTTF

According to patent publication US20230192683A1, “FUSED RING COMPOUNDS, PREPARATION METHOD THEREFOR, PHARMACEUTICAL COMPOSITIONS AND USE THEREOF” (priority 2020, published 2023):

Target: T1, human SSTR4 (Homo sapiens, UniProt P31391)
T1 construct: expressed in transfected cells
Experiment: radioligand binding assay, [125I]Somatostatin-14, CHO-K1 membranes
Protocol: Cell membranes were then filtered and washed, and protein-bound radioactivity was measured with a suitable instrument. The Ki values of corresponding targets were calculated using a Cheng-Prusoff formula.

## Cc1cccc2c(C(C)(C)NC(=O)[C@H]3[C@@H]4CNC[C@@H]43)nn(C)c12 [Control Compound A, reference compound]
  Ki: 1.41 nM
